This passage reports IC50 results from US20130260436A1, “Methods of Identifying and Characterizing Natural Product Gene Clusters” (Victoria LInk Limited, priority 2010, published 2013).

The target of the assay is all three PPTases. In words: BpsA coupled PPTase inhibition assay, summary over all three PPTases. As to conditions: read-out: IC50 values, range over the three PPTases; CoA concentration set at 1.25 μM.

For `O=Nc1ccc2oc(=O)ccc2c1` [6-NOBP], the IC50 is 2.1 to 4 µM.

What is called IC50 is the concentration needed to halve the response being measured.
